Chains of the proteins cited; added tags and fusions are not shown.
UniProt P0DMS8, whole entry: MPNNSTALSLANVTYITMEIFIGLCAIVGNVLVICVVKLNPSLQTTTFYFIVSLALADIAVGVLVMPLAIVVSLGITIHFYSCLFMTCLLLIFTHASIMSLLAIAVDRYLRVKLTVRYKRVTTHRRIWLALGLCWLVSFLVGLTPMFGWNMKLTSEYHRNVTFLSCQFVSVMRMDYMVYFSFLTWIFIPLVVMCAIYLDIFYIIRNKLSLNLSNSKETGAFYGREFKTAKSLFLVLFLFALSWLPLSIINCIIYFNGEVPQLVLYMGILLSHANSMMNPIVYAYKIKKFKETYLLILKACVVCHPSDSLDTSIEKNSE

According to ChEMBL document CHEMBL3352566 (Bioorg Med Chem Lett, 2014):

Experiments:
[1] = molecular target: Adenosine receptor A2a (Homo sapiens, UniProt P29274); test: Displacement of [3H]2-[p-(2-carboxyethyl)phenyl-ethylamino]-5'-N-ethylcarboxamido-adenosine from human A2aAR expressed in HEK293 cells after 60 mins by scintillation counting analysis; assay type: cell-based
[2] = molecular target: Adenosine receptor A3 (Homo sapiens, UniProt P0DMS8); test: Displacement of [125I]N6-(4-amino-3-iodobenzyl)adenosine-5'-N-methyluronamide from human A3AR expressed in CHO cells after 60 mins by scintillation counting analysis; assay type: cell-based

- Ki [1]: 2530 nM
- Ki [2]: 0.86 nM
SMILES: OC[C@H]1O[C@@H](n2cnc3c(NC4CC4c4ccccc4)nc(C#Cc4ccccc4)nc32)[C@H](O)[C@@H]1O (mixture of isomers)
